System: MDA-231 GFP cells
Experiment: Cell migration (scratch wound) assay, MDA-231
Assay type: cell-based
Settings: 33 μM, 4 and 8 hours, normoxic and anoxic conditions, FIG. 6

In the case of `Cc1cc(C)cc(NC(=O)Nc2ccc(OS(N)(=O)=O)cc2)c1` [Compound 3p, 4-[(3,5-dimethylphenyl)ureido]phenyl sulfamate], the “gap closure (cell migration) versus control” value is reported as “significantly inhibits cell migration”.
